Laboratory results from paper PMC5903125.

Assays:
[1] = biological target: RCLH1Xr complex (Rba. sphaeroides reaction centre/LH1/PufX core complex, red carotenoids) (Rhodobacter sphaeroides) (UniProt P0C0Y7); assay: sucrose density gradient ultracentrifugation; DDM-solubilised (4%) intracytoplasmic membranes on five-step gradients of 20-25% (w/v) sucrose in 20 mM HEPES (pH 8)/0.04% DDM, 20 h, 180 000g, 4 °C; monomer and dimer bands; cells grown dark/semi-aerobic, light/anaerobic, or (PufX-deficient strains) light/anaerobic with 20 mM DMSO
[2] = biological target: RCLH1Xg complex (Rba. sphaeroides reaction centre/LH1/PufX core complex, green carotenoids) (Rhodobacter sphaeroides) (UniProt P0C0Y7); assay: sucrose density gradient ultracentrifugation; complexes purified by the His10-tag on PufM from cells grown dark/semiaerobic; data not shown

stoichiometry N [1]	stoichiometry N [2]	Substance
2	–	RCLH1Xr complex (Rba. sphaeroides reaction centre/LH1/PufX core complex, red carotenoids) (from UniProt P0C0Y7 1-260; P0C0Y8 1-282; P0C0Y9 1-308; P13402 1-82; P0C0X9 1-58; P0C0Y1 1-49)
–	2	RCLH1Xg complex (Rba. sphaeroides reaction centre/LH1/PufX core complex, green carotenoids) (from UniProt P0C0Y7 1-260; P0C0Y8 1-282; P0C0Y9 1-308; P13402 1-82; P0C0X9 1-58; P0C0Y1 1-49)
